pKd: −log10 of the molar value.
Target: T1, Recombinant human galectin-3 (Homo sapiens, UniProt P17931)
T1 construct: made in house; host or cells: Escherichia coli
Test: fluorescence polarization-based galectin-3 inhibition assay
Format: binding
Details: Calculated Kd
Procedure: NMR-spectra were recorded with a Bruker DRX-400 instrument. Chemical shifts are given in ppm, with reference to internal residual solvent peaks. Chemical shifts and coupling constants were obtained from ^1H-NMR and proton resonances were assigned from COSY experiments. High-resolution FAB mass spectra (HRMS) were recorded with a JEOL SX-120 instrument. Fluorescence polarization experiments were performed on a PolarStar instrument (BMG, Offenburg; Germany). Column chromatography was performed on SiO2 (Matrex, 60 Å, 35-70 μm, Grace Amicon) and TLC was carried out on SiO2 60 F254 (Merck) with detection under UV light and developed with aqueous sulfuric acid. Concentrations were made using rotary evaporation with bath temperature at or below 40° C. CH2Cl2 and CH3CN were dried by distillation from CaH2. […]
To 100 μL of galectin-3 (1 μM) and a fluorescent probe (2-(fluorescein-5/6-yl-carbonyl)-aminoethyl 4-O-[3-O-(4-methoxy]benzyl)-β-D-galactopyranosyl]-β-D-glucopyranoside, 0.1 μM) were added inhibitor solution (3.2-10000 μM, 100 μL), the plate was incubated under slow rotary shaking in the dark for 5 minutes, and fluorescence polarization measured at room temperature. The fluorescence was measured from above in 96 well microtiter plates (black polystyrene, Costar, Corning, N.Y.) using a PolarStar instrument (BMG, Offenburg; Germany). […]

The chains behind the UniProt entries cited, without tags or fusion partners.
UniProt P17931, whole entry: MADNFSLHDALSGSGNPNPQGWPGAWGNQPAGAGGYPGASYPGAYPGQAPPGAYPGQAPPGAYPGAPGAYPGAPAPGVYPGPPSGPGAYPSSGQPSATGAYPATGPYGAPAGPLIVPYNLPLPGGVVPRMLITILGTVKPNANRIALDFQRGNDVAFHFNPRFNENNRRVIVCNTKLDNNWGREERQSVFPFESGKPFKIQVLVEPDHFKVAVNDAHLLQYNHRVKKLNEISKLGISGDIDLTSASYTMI

CNC(=O)c1cn([C@H]2[C@@H](O)[C@@H](CO)O[C@@H](O[C@H]3[C@H](O)[C@@H](NC(C)=O)[C@H](OC)O[C@@H]3CO)[C@@H]2O)nn1 [Compound 21, Methyl 3-(4-methylaminocarbonyl-1H-[1,2,3]-triazol-1-yl)-3-deoxy-β-D-galactopyranosyl-(1→4)-2-acetamido-2-deoxy-β-D-glucopyranoside]
pKd: 5.24
